Assays:
[1] = system: ultrapure calf thymus DNA 13 kb; assay: DNA compaction: electrophoresis in agarose gel with ethidium bromide as stain; assay type: binding
DNA = assay: DNA-bguan interaction by UV absorption spectra; details: 1 equivalent bguan, buffer solution

With “Heptakis(6-deoxy-6-guanidino)-β-cyclodextrin” the “mass/charge ratio at which the compound compacts DNA” value ([1]; ratio mass/charge of compound to that of DNA, agarose gel electrophoresis) was no more than 0.45, the “mobility of DNA during electrophoresis” value ([1]; wells c and d (bguan 10 λ and 5 λ of 1.01×10^−4 M, DNA 1 λ)) was “completely stalled” and the “mobility of DNA during electrophoresis” value ([1]; wells e and f (bguan 1 λ and 1 λ of stock diluted 1:10, DNA 1 λ)) was “partial inhibition”. For the same substance, the solubility in water (Solubility in water) was 59 mM and the “absorption maximum and shape of the absorbance curve of DNA” value (DNA) was “changed appreciably”.
